Reference: patent US7365194B2, “Dimer of phenazine-1-carboxylic acid and to the process of preparation thereof” (Pondicherry University and Department of Biotechnology, priority 2004, dated 2008)

Tested on: cell lines
Experiment: MTT cytotoxicity assay
Assay type: cell-based
Conditions: 24 hr at 37° C.
Description: (§1) Dimer of phenazine-1-carboxylic acid natural product was tested for cytotoxycity using 3-(4,5-dimethylthiazol-2-yl)-2,5-diphenyltetrazolium bromide (MTT) assay. The cells (3×10^3/well) were cultured in 96-well plates with different concentrations of dimer of phenazine-1-carboxylic acid natural product (1-50 μg) for 24 hr at 37° C. At the end of incubation, 20 μL MTT (5 mg/mL) was added and cells were incubated at 37° C. After 4 hr, MTT was removed and 100 μL of DMSO was added. Cell viability was determined by measuring the absorbance at a test wavelength of 570 nm.
as §1, with “Cytotoxycity of dimer” for “Dimer”, “product against cell lines” for “product”, “determined by MTT” for “tested for cytotoxycity using 3-(4,5-dimethylthiazol-2-yl)-2,5-diphenyltetrazolium bromide (MTT)”, “For MTT assay, the” for “The”, “product” for “product (1-50 μg)”

Q: How did the “Cell viability (%)” value (concentration 1 (1-50 μg)) turn out when dimer of phenazine-1-carboxylic acid was run?
A: Its value is 45.03%.

Q: And the “Cell viability (%)” value (concentration 10 (1-50 μg))?
A: The value was 40.03%.

Q: And the “Cell viability (%)” value (concentration 25 (1-50 μg))?
A: Its value is 31.07%.

Q: What about the “Cell viability (%)” value (concentration 50 (1-50 μg)) of the same substance?
A: Its value is 24.17%.
